Measurements as given in patent US6476187B1, “Methods and reagents for discovering and using mammalian melanocortin receptor agonists and antagonists to modulate feeding behavior in animals” (Oregon Health & Sciences University, priority 1992, dated 2002).

The chains behind the UniProt entries cited, without tags or fusion partners. Where a name states a change or a piece, a line headed by the entry shows the natural chain unless it says otherwise.
UniProt Q01727: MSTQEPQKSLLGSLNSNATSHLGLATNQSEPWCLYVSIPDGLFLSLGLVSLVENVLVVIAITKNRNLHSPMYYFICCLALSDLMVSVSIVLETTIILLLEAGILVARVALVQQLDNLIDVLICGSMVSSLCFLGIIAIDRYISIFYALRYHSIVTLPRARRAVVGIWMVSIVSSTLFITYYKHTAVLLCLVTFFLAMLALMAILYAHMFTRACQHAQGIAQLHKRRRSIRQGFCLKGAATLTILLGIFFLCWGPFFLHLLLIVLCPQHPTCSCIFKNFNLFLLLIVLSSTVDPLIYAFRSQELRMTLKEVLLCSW

Biological target: T1, murine αMSH receptor (MC-1) (Mus musculus, UniProt Q01727)
T1 construct: excising the entire coding region of the αMSH^R (MC-1) cDNA insert comprising a 2.1 kb fragment; expressed in transfected cells; host or cells: human 293 cells, pcDNAI/neo, G418-selected
Test: intracellular cAMP accumulation in 293 cells transfected with mouse αMSH receptor
Type: cell-based
Conditions: read-out: EC50 (intracellular cAMP); 293 cells expressing murine αMSH receptor, 45 min at 37° C.

α-melanocyte stimulating hormone [α-MSH]
EC50: 2 nM
